# Measured values as given in ChEMBL document CHEMBL4007426, “Phosphinophosphonates and Their Tris-pivaloyloxymethyl Prodrugs Reveal a Negatively Cooperative Butyrophilin Activation Mechanism” (J Med Chem, 2017).
# Protein sequences, listed by entry. Tags and fused reporters are not part of them. Lines headed by an entry give the natural chain unless they say otherwise; changes in a name come on top.
# UniProt O00481: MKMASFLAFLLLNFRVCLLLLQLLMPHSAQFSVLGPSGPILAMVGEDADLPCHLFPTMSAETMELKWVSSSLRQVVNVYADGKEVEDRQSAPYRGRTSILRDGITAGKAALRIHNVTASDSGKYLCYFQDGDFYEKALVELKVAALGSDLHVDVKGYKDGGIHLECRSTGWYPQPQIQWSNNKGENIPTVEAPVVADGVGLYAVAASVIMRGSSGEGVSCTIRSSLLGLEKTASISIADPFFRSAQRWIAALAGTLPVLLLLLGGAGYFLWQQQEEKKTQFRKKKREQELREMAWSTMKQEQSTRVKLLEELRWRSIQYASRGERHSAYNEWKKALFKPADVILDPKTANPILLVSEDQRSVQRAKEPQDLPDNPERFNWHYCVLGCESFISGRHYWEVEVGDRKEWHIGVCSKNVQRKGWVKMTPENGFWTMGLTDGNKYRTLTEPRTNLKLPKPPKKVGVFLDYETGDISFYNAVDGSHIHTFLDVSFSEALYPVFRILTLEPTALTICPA
# Biological target: Butyrophilin subfamily 3 member A1 (Homo sapiens) (UniProt O00481)
# Experiment: Potency index, ratio of HMBPP EC50 to compound EC50 for BTN3A1 in human Vgamma9Vdelta2 T cells assessed as induction of T effector cells mediated K562 cell lysis
row,Compound,Ratio EC50
1,C/C(=C\CCP(=O)(CP(=O)(OCOC(=O)C(C)(C)C)OCOC(=O)C(C)(C)C)OCOC(=O)C(C)(C)C)CO (stereo not drawn),0.0057
2,CC(C)=CCCP(=O)(CP(=O)(OCOC(=O)C(C)(C)C)OCOC(=O)C(C)(C)C)OCOC(=O)C(C)(C)C (stereo not drawn),0.00022
3,C/C(=C\CCP(=O)([O-])CP(=O)([O-])[O-])CO.[Na+].[Na+].[Na+],3.9e-05
